{"source": "patent US20210330611A1", "about": "“THERAPY FOR NEUROLOGICAL DISEASES/DISORDERS” (priority 2020, published 2021)", "test_system": "primary rat microglia", "note": "Counter-ions that a name gives are not always drawn.", "data": [{"compound": "CN1CCc2cccc3c2[C@H]1Cc1ccc(O)c(O)c1-3", "note": "[Apomorphine Hydrochloride]", "values": [{"measurement": "LPS % cell toxicity", "result": 0, "unit": "%"}]}]}
